scFv variants of Ab-14 (light chain) against a SARS-CoV-2 spike peptide

Target: peptide PDVDLGDISGINAS, taken from heptad repeat 2 (HR2) of SARS-CoV-2 spike.

Parent scFv Ab-14: VH joined to VL by a (GGGGS)3 linker. Changes lie in the light chain CDRs alone.
VH: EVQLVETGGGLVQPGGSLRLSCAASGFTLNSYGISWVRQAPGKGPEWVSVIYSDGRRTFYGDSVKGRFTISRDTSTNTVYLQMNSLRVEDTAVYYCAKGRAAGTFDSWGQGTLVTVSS
VL: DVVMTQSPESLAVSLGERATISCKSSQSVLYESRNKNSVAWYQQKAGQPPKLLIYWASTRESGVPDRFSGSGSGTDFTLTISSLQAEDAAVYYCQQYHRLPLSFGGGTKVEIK

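The starting antibody came from a phage panning campaign against this peptide. AAYL50 was designed without a model: most single CDR substitutions and a random sample of double and triple ones. The assay is AlphaSeq: two haploid yeast populations carry antibody and antigen on their surface. The frequency of each diploid, read from paired DNA barcodes, reflects how well the two displayed proteins bind. The ratio of observed to expected reads was calibrated, replicate by replicate, on BCL2-family standards whose Kd was known from biolayer interferometry. There are three technical replicates.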

Positions count from residue 1 of the parent VL; Q27I puts I in place of Q. Kd is apparent (estimated from mating counts) and averaged on the log scale over replicates with a signal. Smaller is tighter. An entry "nd" has no value in the source: the pair was not observed among the diploids in any replicate. This suggests poor binding but is not conclusive. Order: sorted from the lowest average up, undetected variants last.

changes | Kd (apparent) | replicates with signal | signal with controls
Q27I N35G W56D | 720 pM | 3 of 3 | 2 of 9
R34N L102G | 2.3 nM | 3 of 3 | 0 of 9
E32G W56Y S103W | 2.4 nM | 3 of 3 | 1 of 9
T59V Q96I L100C | 4.9 nM | 3 of 3 | 2 of 9
S28P L30A Y97N | 11 nM | 3 of 3 | 1 of 9
K24C S25G A40F | 14 nM | 3 of 3 | 0 of 9
S26H E61V L100M | 15 nM | 3 of 3 | 4 of 9
S26N S28Q | 15 nM | 3 of 3 | 2 of 9
N37K T59E P101G | 18 nM | 3 of 3 | 0 of 9
E61T S62A L102F | 20 nM | 3 of 3 | 0 of 9
V29G Y31W A57K | 22 nM | 3 of 3 | 0 of 9
K24V V39L L102E | 29 nM | 3 of 3 | 2 of 9
S25H S58Q Q96F | 29 nM | 3 of 3 | 0 of 9
Q27M A57E R99Q | 42 nM | 3 of 3 | 1 of 9
S25M S33K H98F | 43 nM | 3 of 3 | 1 of 9
S25Q N37A R99L | 45 nM | 3 of 3 | 2 of 9
V29F N35R S62P | 78 nM | 3 of 3 | 0 of 9
L30A A57M | 98 nM | 3 of 3 | 5 of 9
K24R N35F S103L | 120 nM | 3 of 3 | 0 of 9
E61Q S103Y | 200 nM | 3 of 3 | 1 of 9
S38D S58W T59Y | 300 nM | 3 of 3 | 1 of 9
R34P W56I H98A | 570 nM | 3 of 3 | 0 of 9
S28F S38Y S62T | 610 nM | 2 of 3 | 0 of 9
R34C T59Y H98R | 680 nM | 3 of 3 | 0 of 9
Y31A R34H Q95R | 980 nM | 1 of 3 | 0 of 9
K24A N35T L102T | 1.4 µM | 3 of 3 | 1 of 9
Q95A S103K | 2.0 µM | 1 of 3 | 0 of 9
N37V W56T R60Q | 4.9 µM | 1 of 3 | 1 of 9
E32C S58L Q95C | 5.1 µM | 2 of 3 | 1 of 9
K36A S58P Y97W | 5.8 µM | 1 of 3 | 0 of 9
N37G S58C T59P | 7.8 µM | 2 of 3 | 2 of 9
K24G Q27R S58K | 8.9 µM | 1 of 3 | 1 of 9
L30I E32A | 9.3 µM | 2 of 3 | 2 of 9

Continued, with the values leading:

Kd (apparent) | replicates with signal | signal with controls | changes
15 µM | 1 of 3 | 0 of 9 | K24R S28R Q95F
22 µM | 2 of 3 | 2 of 9 | K24P Y31T S58C
26 µM | 1 of 3 | 2 of 9 | N35C R60M L100W
26 µM | 2 of 3 | 1 of 9 | L30W K36M H98T
42 µM | 2 of 3 | 8 of 9 | V39P T59Y S62R
76 µM | 1 of 3 | 1 of 9 | V39N T59G R60G
84 µM | 2 of 3 | 2 of 9 | V29K A40W T59C
240 µM | 1 of 3 | 4 of 9 | S26V T59H Q95D
240 µM | 1 of 3 | 2 of 9 | S38F Y97I R99I
470 µM | 2 of 3 | 7 of 9 | S25I S62D Y97Q
580 µM | 1 of 3 | 1 of 9 | S25K K36S
590 µM | 1 of 3 | 1 of 9 | A40W Y97F P101E
nd | 0 of 3 | 1 of 9 | A40L S58Y S62Y
nd | 0 of 3 | 0 of 9 | S26A V39P L102W
nd | 0 of 3 | 2 of 9 | E61V S62D P101E
nd | 0 of 3 | 0 of 9 | K24A Q27L N37T
nd | 0 of 3 | 1 of 9 | Q27K Y31C R60C
nd | 0 of 3 | 0 of 9 | A40P T59L E61C
nd | 0 of 3 | 0 of 9 | A40R T59N Q96I
nd | 0 of 3 | 2 of 9 | E32I S33C K36Q
nd | 0 of 3 | 1 of 9 | S28Q A40E A57Q
nd | 0 of 3 | 1 of 9 | V29C A40Q R99E
nd | 0 of 3 | 2 of 9 | R60S S62Q L100S
nd | 0 of 3 | 2 of 9 | S33C W56Y L100A
nd | 0 of 3 | 0 of 9 | A40W R99Y
nd | 0 of 3 | 0 of 9 | S38N S62F P101W
nd | 0 of 3 | 1 of 9 | S58P T59H
nd | 0 of 3 | 0 of 9 | A40K A57E L102V
nd | 0 of 3 | 2 of 9 | S38L T59S L102Q
nd | 0 of 3 | 0 of 9 | R34A P101R L102V
nd | 0 of 3 | 1 of 9 | S38V S62L Q95T
nd | 0 of 3 | 0 of 9 | S25H A40D Q95P
nd | 0 of 3 | 2 of 9 | R34M S58P
nd | 0 of 3 | 0 of 9 | Q27K R34C R99I

7 of these entries, quoted again:

{"changes": "R34A P101R L102V", "Kd (apparent)": "nd", "replicates with signal": "0 of 3", "signal with controls": "0 of 9"}
{"changes": "K24R N35F S103L", "Kd (apparent)": "120 nM", "replicates with signal": "3 of 3", "signal with controls": "0 of 9"}
{"changes": "K24P Y31T S58C", "Kd (apparent)": "22 µM", "replicates with signal": "2 of 3", "signal with controls": "2 of 9"}
{"changes": "Q95A S103K", "Kd (apparent)": "2.0 µM", "replicates with signal": "1 of 3", "signal with controls": "0 of 9"}
{"changes": "R60S S62Q L100S", "Kd (apparent)": "nd", "replicates with signal": "0 of 3", "signal with controls": "2 of 9"}
{"changes": "Q27K R34C R99I", "Kd (apparent)": "nd", "replicates with signal": "0 of 3", "signal with controls": "0 of 9"}
{"changes": "R34M S58P", "Kd (apparent)": "nd", "replicates with signal": "0 of 3", "signal with controls": "2 of 9"}

Parent in this assay: reference entry 4.4 nM, copy in this library 48 nM. Nonspecific signal, from three strains lacking the peptide, appeared in 18% of pairings of library AAYL50, centred on 15 µM (5% of these signals below 970 nM); values are not corrected for it. Also given: how often the same scFv was detected with the empty control strains.

Reference: Engelhart et al. 2022, doi:10.1038/s41597-022-01779-4. File: FLAb, binding data.